Data taken from US20090143361A1, “Pyrido[3,2-E]Pyrazines, Process For Preparing The Same, And Their Use As Inhibitors Of Phosphodiesterase 10” (ELBION GMBH, priority 2007, published 2009).

The chains behind the UniProt entries cited, without tags or fusion partners. Residues count along the entry.
UniProt Q9Y233, 1-779 isoform Q9Y233-1: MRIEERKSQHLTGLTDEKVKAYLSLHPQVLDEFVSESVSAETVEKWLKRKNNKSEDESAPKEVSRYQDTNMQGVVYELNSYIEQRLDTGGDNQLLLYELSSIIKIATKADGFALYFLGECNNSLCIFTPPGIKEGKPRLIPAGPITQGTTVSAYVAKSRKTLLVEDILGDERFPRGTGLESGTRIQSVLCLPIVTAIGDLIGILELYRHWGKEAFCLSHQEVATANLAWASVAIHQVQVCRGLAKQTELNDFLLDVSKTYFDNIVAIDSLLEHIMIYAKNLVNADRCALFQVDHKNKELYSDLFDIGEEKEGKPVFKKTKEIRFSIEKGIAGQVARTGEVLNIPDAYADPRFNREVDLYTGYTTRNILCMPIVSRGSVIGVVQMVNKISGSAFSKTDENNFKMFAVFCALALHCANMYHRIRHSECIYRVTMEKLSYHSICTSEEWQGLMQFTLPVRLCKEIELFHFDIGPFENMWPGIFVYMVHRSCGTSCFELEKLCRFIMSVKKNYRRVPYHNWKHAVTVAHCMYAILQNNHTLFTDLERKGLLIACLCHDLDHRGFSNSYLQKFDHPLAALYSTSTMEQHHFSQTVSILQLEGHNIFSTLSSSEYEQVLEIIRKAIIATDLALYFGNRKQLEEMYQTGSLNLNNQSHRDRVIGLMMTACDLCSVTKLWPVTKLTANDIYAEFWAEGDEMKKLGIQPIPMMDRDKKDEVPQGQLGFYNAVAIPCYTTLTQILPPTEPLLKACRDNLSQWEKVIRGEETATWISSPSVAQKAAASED

Target: T1, human recombinant PDE10A (Homo sapiens, UniProt Q9Y233)
T1 construct: made in house; host or cells: SF21 insect cells (baculovirus)
Assay: Inhibition of PDE10, human recombinant PDE10A ([3H]-cAMP SPA)
Assay type: biochemical
Protocol: The gene was than inserted into a baculovirus vector, ligated with the baculovirus DNA. The enzyme-protein was expressed in SF21-cells. The enzyme was isolated from these cells by harvesting the cells by a centrifugation at 200 g to collect the cells. The cells were resuspended in 50 mM Tris-HCl/5 mM MgCl2 buffer (pH=7.4) and lysed by a sonication of the cells. The cytosolic PDE10A was obtained by a centrifugation at 48000 g for 1 h in the supernatant and stored at −70° C. PDE10 activity was determined in a one step procedure in microtiterplates. […] Nonspecific activity was tested without the enzyme. The reaction was initiated by addition of the substrate solution and was carried out at 37° C. for 30 minutes. Enzymatic activity was stopped by addition of 25 μl YSi-SPA-beads (Amersham-Pharmacia). One hour later the mixture was measured in a liquid scintillation counter for microtiterplates (Microbeta Trilux). To pipette the incubation mixture a robot Biomek (Fa. Beckman) is used. […] For determination of IC50 values the Hill-plot, 2-parameter-model, was used.

COc1ccc(Cc2nccc3cc(OC)c(OC)cc23)cc1OC [Papaverine, papaverine]
IC50: 89 nM
